Source: patent US12545892B2, “Application of TGF-B inhibitor in inducing neural stem cells and organoid formation” (IREGENE THERAPEUTICS, CO., LTD., priority 2020, dated 2026)

Tested on: Human pluripotent stem cells
Test: CyQuant assay of medium components (cell viability in long-term culture)
Format: cell-based
Conditions: different concentrations, FIG. 2b-2c
Description: The Cyquant assay was used to perform the quantitative detection of cell viability, thus investigating the effect of LY2157299 on the physiological state of the cells during long-term culture of the cells; Among them, the LSB method was used as the control group. 96-well light-tight cell culture plates were coated; after the coating was complete, cells were seeded separately at 5×10^4 cell number per well and three sets of parallel replicates were set (the average of three sets was calculated as data) to repeat the procedure of example 2.1. Wherein, the culture procedures described previously were incubated at 37° C. with 5% CO2. Samples were taken on days 1, 5, 10, 15 and 20 for cell viability assay using CyQuant Kit (Invitrogen, cat. No: X12223). The aforementioned assay was operated according to the instructions with a Spectramax i3 Multi-Mode Microplate Reader (VWR, model number: ID3-STD) for data reading. […] Combined with cost factors, the range of recombinant insulin and recombinant serum albumin used by the present invention falls within the range of optimal use.

recombinant serum albumin: medium component screened at different concentrations for cell growth
effect of concentration on cell proliferation (CyQuant): positively correlated with the rate of cell proliferation
